Reference: article PMC3130079 (2011)

Amino acid sequences for entries named in this document (tags omitted).
UniProt Q8BLA8, whole entry: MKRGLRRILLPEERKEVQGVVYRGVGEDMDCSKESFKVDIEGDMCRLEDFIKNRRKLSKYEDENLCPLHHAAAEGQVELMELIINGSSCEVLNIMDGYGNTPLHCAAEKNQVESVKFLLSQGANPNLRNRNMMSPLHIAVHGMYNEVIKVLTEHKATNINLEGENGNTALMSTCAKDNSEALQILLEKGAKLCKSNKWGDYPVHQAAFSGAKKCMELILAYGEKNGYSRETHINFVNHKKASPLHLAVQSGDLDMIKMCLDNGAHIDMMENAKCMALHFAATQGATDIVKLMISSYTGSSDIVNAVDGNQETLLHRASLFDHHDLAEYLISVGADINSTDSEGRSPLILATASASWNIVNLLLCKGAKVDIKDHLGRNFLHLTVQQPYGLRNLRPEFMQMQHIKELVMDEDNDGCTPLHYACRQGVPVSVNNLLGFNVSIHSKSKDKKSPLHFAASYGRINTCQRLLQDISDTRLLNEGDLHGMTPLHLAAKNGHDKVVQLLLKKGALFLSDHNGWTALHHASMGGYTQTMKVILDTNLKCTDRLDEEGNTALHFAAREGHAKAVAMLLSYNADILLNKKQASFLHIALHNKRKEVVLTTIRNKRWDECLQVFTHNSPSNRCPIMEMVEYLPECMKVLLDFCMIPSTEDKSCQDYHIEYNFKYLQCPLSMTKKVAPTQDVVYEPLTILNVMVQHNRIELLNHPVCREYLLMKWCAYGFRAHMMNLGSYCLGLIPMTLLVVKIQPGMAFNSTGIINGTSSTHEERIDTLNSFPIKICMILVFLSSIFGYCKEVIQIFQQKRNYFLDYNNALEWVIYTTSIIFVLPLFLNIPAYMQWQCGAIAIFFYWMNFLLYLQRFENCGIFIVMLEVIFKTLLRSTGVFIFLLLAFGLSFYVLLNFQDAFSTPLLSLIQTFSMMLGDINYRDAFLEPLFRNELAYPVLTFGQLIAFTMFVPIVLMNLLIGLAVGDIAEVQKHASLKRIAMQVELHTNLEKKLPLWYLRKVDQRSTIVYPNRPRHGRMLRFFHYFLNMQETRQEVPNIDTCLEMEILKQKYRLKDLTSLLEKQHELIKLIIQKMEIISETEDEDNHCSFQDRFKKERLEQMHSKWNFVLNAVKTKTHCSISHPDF

Target: TRPA1 (Mus musculus, UniProt Q8BLA8)
Test: cell-based

Question: With `Cc1c(C(=O)NN2CCCCC2)nn(-c2ccc(Cl)cc2Cl)c1-c1ccc(I)cc1` [AM251] as the compound, how does the EC50 read?
Answer: ~21 µM
